Test results reported in patent US5373089A, “Oxytocin antagonist” (Northwestern University, priority 1993, dated 1994).

Legend:
ADH = ADH bioassay (alteration in urine output due to ADH); type: in vivo; settings: relative to A = 1.000
Procedure: The above compound was also tested for antagonism to vasopressin. Anti-ADH activity can be determined by measuring the alteration in urine output due to ADH in the presence and absence of the antagonist. A suitable ADH-assay is described in Sawyer, et al., Endocrinology, 63:694 (1958). […] The ratio of oxytocin antagonism to ADH antagonism was very high, viz. over 1, 866, as compared with 200 for the compositions disclosed in the parent applications.
The anti-ADH activity is measured by the alteration in urine […] in the presence and absence of the antagonist to determine the specificity of the antagonist. The anti-ADH assay is described in Sawyer, et al., Endocrinology, 63:694 (1958).

ESTROUS RAT UTERUS = experiment: Oxytocic bioassay (isolated rat uterus, integrated contraction response to oxytocin); type: cell-based; settings: relative to B = 1.0
Text: The protocol used for the oxytocin bioassay procedure is derived from procedures described in a paper by Sawyer, et al., Endocrinology, 106:81 (1980), which in turn was based on reports of Munsick, Brit. J. Pharmacol., 3:328 (1960), and Holton, Brit. J. Pharmacol., 3:328 (1948). The assay calculations for the pA2 estimates are described by Schild, British J. Pharmacology, 2:189 (1947). The major difference in the present procedure from those reported by others in the field is that the area under the contraction is integrated where most other techniques calculate the amplitude. Integration provides much more consistent and reliable results although the pA2 estimates are approximately an order of magnitude lower than those reported using amplitude of the contraction as the endpoint.
1. Animals--a 1.5 cm piece of uterus from a virgin rat (Holtzman) in natural estrus is used for the assay.
2. Buffer/Assay Bath--The buffer used is Munsicks. This buffer contains 0.5 mM Mg^++ which reduces the pA2 estimates, but the results are reported to correlate better with in vivo data (Sawyer, et al., 1980). […]
(e) Calculations for pA2 : The dose-response (DR) ratios are calculated for antagonist and a Schild's Plot is performed by plotting the Log (DR-1) vs. Log of antagonist concentration. The line plotted is calculated by least squares regression analysis. […]

HUMAN OXYTOCIN RECEPTOR = target: T1, HUMAN OXYTOCIN RECEPTOR (Homo sapiens, UniProt P30559); experiment: Oxytocin receptor assay, human myometrial tissue membranes, 3H-OT competition; type: binding
T1 construct: Oxytocin receptors (OTrs) reside on the cell membrane and are present at high concentrations at the end of pregnancy in uterine tissue; from tissue; host or cells: human myometrium from cesarean section patients, sucrose-gradient membrane fraction
T1 sequence (P30559 1-389): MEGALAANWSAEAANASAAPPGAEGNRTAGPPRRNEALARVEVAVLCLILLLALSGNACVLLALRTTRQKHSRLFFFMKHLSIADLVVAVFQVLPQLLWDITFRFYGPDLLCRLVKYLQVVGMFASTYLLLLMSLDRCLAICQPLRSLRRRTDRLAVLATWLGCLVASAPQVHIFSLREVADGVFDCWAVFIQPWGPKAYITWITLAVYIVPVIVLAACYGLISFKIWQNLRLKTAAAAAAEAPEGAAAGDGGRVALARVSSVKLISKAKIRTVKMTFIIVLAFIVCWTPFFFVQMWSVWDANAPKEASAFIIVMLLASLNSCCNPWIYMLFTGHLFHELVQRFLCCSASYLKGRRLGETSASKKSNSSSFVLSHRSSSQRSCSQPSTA
Procedure: Human myometrial tissue was collected from patients at the time of cesarian section after informed consent. The tissue was rinsed in cold buffer, cut into small pieces and frozen at -70° C. until homogenization.
Oxytocin receptors (OTrs) reside on the cell membrane and are present at high concentrations at the end of pregnancy in uterine tissue. Frozen tissue is homogenized in Tris buffer, the homogenate filtered, and the filtrate centrifuged at 1000 g for 15 minutes at 4° C. The supernatant is centrifuged at 40,000 g for 30 minutes and the pellet containing the cell membranes resuspended in 10% sucrose. […]
The binding assay consist of 0.1 ml of 20,000 cmp of tritium labeled OT (New England Nuclear, […]), 0.1 ml of OT antagonist added at increasing concentration, 0.25 ml of buffer and 0.05 ml of membrane (70-150 ug protein). […] The resulting pellet containing the bound ^3 H-OT is dissolved in 0.1N NaOH at 45 ° C. for 30 minutes and this mixture is then placed in liquid scintillation counting fluid and counted for dpms in a scintillation counter.
The data is analyzed by nonlinear curve fitting methods using McPherson's EBDA (J Pharmacol Methods 14:213-228, 1985) and Munson and Rodbard's LIGAND (Anal Biochem 107:220-239, 1980) program for saturation and competition analysis for determining Kds and Kis.

RECEPTOR ASSAY Ka (HUMAN OXYTOCIN RECEPTOR; myometrial tissue from women at term by C-section, Table 4): 41.7 10^+8 M^-1
hOTR (OTA/ANTI) (HUMAN OXYTOCIN RECEPTOR; ratio of binding affinity to ANTAG I, human oxytocin receptor): 81.8
Substance: [(S)Pmp^1,D-Trp^2,Pen^6,Arg^8 ] oxytocin [Compound D]
ADH Bioassay Relative Anti-ADH Activity (ADH): 0.012
Oxytocic Bioassay Relative Anti-Oxytocic Activity (ESTROUS RAT UTERUS): 22.4
